Values quoted from earlier work, collected in patent publication US12576169B2, “Silicon-fluoride acceptor substituted radiopharmaceuticals and precursors thereof” (Technische Universität München, priority 2019, dated 2026).

By UniProt entry, the sequences of proteins in these tests, tags left out. Residues count along the entry.
UniProt P02768, 25-609: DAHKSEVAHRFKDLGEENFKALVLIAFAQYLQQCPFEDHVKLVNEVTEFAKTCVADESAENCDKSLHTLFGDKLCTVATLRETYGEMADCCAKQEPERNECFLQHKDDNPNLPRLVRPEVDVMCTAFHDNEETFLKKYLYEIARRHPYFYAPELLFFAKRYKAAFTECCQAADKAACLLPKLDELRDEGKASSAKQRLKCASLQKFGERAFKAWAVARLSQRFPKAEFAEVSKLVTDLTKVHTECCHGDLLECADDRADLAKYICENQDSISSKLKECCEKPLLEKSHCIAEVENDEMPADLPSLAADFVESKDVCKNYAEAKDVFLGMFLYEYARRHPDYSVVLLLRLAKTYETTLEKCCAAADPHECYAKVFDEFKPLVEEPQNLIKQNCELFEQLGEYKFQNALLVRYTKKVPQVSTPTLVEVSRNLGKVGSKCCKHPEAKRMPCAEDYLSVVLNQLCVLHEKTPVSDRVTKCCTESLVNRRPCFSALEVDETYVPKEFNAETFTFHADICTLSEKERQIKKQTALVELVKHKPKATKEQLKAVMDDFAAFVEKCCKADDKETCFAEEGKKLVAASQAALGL

Target: HSA (Homo sapiens, UniProt P02768)
Settings: cited from earlier work

Q: Which results are given for `NC(=O)N1c2ccccc2C=Cc2ccccc21` [Carbamazepine]?
A: Lit. HSA binding (literature values (Yamazaki, Kanaoka 2004)): 75.00%; Log K HSA (logarithmic K of HSA binding literature values): 0.4601
